From EP4843985A1, “TRIAZOLOPYRIMIDINE DERIVATIVE, PREPARATION METHOD THEREFOR AND USE THEREOF” (dated 2026)

Amino acid sequences for entries named in this document (tags omitted). Residues count along the entry.
UniProt Q14191, 517-1238 limits assumed: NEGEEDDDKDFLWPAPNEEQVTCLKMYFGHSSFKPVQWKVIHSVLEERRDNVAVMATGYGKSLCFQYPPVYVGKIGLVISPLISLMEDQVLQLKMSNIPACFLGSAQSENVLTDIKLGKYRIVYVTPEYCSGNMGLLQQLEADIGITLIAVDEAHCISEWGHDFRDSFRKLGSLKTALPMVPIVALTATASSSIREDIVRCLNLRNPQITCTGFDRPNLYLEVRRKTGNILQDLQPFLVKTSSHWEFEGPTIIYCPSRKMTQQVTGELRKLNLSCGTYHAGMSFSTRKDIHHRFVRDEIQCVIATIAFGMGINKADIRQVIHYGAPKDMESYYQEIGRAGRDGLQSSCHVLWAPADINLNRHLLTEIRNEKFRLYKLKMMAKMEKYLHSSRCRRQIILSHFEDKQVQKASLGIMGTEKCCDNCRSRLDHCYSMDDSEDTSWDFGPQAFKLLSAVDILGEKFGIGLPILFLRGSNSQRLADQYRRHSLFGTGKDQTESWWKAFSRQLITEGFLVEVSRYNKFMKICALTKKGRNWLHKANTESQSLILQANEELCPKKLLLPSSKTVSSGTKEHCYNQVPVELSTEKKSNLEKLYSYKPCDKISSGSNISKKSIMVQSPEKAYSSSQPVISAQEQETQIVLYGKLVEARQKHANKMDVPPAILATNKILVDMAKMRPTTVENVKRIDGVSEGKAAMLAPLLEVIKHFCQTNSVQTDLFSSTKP

Key:
[1] = biological target: WRN protein (AA N517-P1238) (Homo sapiens, UniProt Q14191); test: In vitro WRN enzymatic activity assay (ADP-Glo ATPase assay); details: read-out: ADP-Glo; 10 nM WRN enzyme, 3 hours pre-incubation at 25°C, ssDNA substrate
SW48 (CRC, MSI) = test: Cell proliferation inhibition assay (CellTiter-Glo), SW48; details: read-out: SW48 (CRC, MSI), 120 hours
SW620 (CRC, MSS) = test: Cell proliferation inhibition assay (CellTiter-Glo), SW620; details: read-out: SW620 (CRC, MSS), 120 hours

Compound | IC50 [1] [nM] | IC50 (SW48 (CRC, MSI)) | IC50 (SW620 (CRC, MSS)) [nM]
CCc1c(N2CCN(C(=O)c3ncnc(C)c3O)CC2)c(=O)n2nc(C3=CCN(C(=O)OC4CCCC4)CC3)nc2n1CC(=O)Nc1ccc(C(F)(F)F)cc1Cl | 6.82 | 32.2 nM | > 10000
CCc1c(N2CCN(C(=O)c3ncnc(C)c3O)CC2)c(=O)n2nc(C3=CCC(c4nnc(C)s4)CC3)nc2n1CC(=O)Nc1ccc(C(F)(F)F)cc1Cl (centres unmarked) | 4.3 | 46.1 nM | > 10000
[2H]C1([2H])C=C(c2nc3n(CC(=O)Nc4ccc(C(F)(F)F)cc4Cl)c(CC)c(N4CCN(C(=O)c5ncnc(C)c5O)CC4)c(=O)n3n2)CCCO1 | 2.16 | 42.9 nM | > 10000
[2H]C1([2H])C=C(c2nc3n(CC(=O)Nc4ccc(C(F)(F)F)cc4Cl)c(CC)c(N4CCN(C(=O)c5ncnc(C)c5O)CC4)c(=O)n3n2)CCC([2H])([2H])O1 | 3.26 |  | 
CCc1c(N2CCN(C(=O)c3ncnc(C)c3O)CC2)c(=O)n2nc(C3=CCN(C(=O)N4CC(F)(F)C4)CC3)nc2n1CC(=O)Nc1ccc(C(F)(F)F)cc1Cl | 4.7 | 45.2 nM | > 10000
CCc1c(N2CCN(C(=O)c3ncnc(C)c3O)CC2)c(=O)n2nc(C3=CCN(c4ccccc4)CC3)nc2n1CC(=O)Nc1ccc(C(F)(F)F)cc1Cl | 6.39 | 77.5 nM | > 10000
CCc1c(N2CCN(C(=O)c3ncnc(C)c3O)CC2)c(=O)n2nc(C3=CCN(c4nnc(C)s4)CC3)nc2n1CC(=O)Nc1ccc(C(F)(F)F)cc1Cl | 4.71 | 59.6 nM and 47.1 nM | > 10000
CCc1c(N2CCN(C(=O)c3ncnc(C)c3S)CC2)c(=O)n2nc(C3=CCOCC3)nc2n1CC(=O)Nc1ccc(C(F)(F)F)cc1Cl | 9.46 |  | 
CCc1c(N2CCN(C(=O)c3ncnc(C)c3O)CC2)c(=O)n2nc(C3=CCC4(CC3)CC4)nc2n1CC(=O)Nc1ccc(C(F)(F)F)cc1Cl | 8.4 |  | 
CCc1c(N2CCN(C(=O)c3ncnc(C)c3O)CC2)c(=O)n2nc(C3=CCC(N4CCOC4=O)CC3)nc2n1CC(=O)Nc1ccc(C(F)(F)F)cc1Cl (centres unmarked) | 3.9 | 79 nM | > 10000
[2H]C1([2H])CCC(c2nc3n4c(c(N5CCN(C(=O)c6ncnc(C)c6O)[C@H]6CC[C@@H]65)c(=O)n3n2)C(C)CC4C(=O)Nc2scc(C(F)(F)F)c2C)=CCO1 (single isomer, unassigned) | 2.53 | 6.89 nM | > 10000
CCc1c(N2CCN(C(=O)c3ncnc(C)c3O)CC2)c(=O)n2nc(C3=CCN(C(=O)OCC4CC4)CC3)nc2n1CC(=O)Nc1ccc(C(F)(F)F)cc1Cl | 4 | 42.9 nM | > 10000
CCc1c(N2CCN(C(=O)c3ncnc(C)c3O)CC2)c(=O)n2nc(C3=CCOCCC3)nc2n1CC(=O)Nc1scc(C(F)(F)F)c1Cl | 2.32 | 46.5 nM | > 10000
CCc1c(N2CCN(C(=O)c3ncnc(C)c3O)CC2)c(=O)n2nc(C3=CCN(C(=O)OCc4ccccc4)CC3)nc2n1CC(=O)Nc1ccc(C(F)(F)F)cc1Cl | 5.3 |  | 
CCc1c(N2CCN(C(=O)c3cn4ccnc4cc3O)CC2)c(=O)n2nc(C3=CCOCC3)nc2n1CC(=O)Nc1ccc(C(F)(F)F)cc1Cl | 2.04 |  | 
CCc1c(N2CCN(C(=O)c3ncnc(C)c3O)CC2)c(=O)n2nc(C3=CCC4(CC3)CN(C)C(=O)O4)nc2n1CC(=O)Nc1ccc(C(F)(F)F)cc1Cl (racemic) | 4.8 |  | 
[2H]C1([2H])CCC(c2nc3n4c(c(N5CCN(C(=O)c6ncnc(C)c6O)CC5)c(=O)n3n2)C(C)CC4C(=O)Nc2scc(C(F)(F)F)c2C)=CCO1 (single isomer, unassigned) [307-P3] | 2.29 |  | 
CCc1c(N2CCN(C(=O)c3ncnc(C)c3O)CC2)c(=O)n2nc(C3=CCN(C(=O)CC(F)(F)F)CC3)nc2n1CC(=O)Nc1ccc(C(F)(F)F)cc1Cl | 5.41 |  | 
CCc1c(N2CCN(C(=O)c3ncnc(C)c3O)CC2)c(=O)n2nc(C3=CCN(C(=O)C(C)C)CC3)nc2n1CC(=O)Nc1ccc(C(F)(F)F)cc1Cl | 10.2 | 25 nM | 
CCc1c(N2CCN(C(=O)c3ncnc(C)c3O)CC2)c(=O)n2nc(C3=CCN(C(=O)C4CC4)CC3)nc2n1CC(=O)Nc1ccc(C(F)(F)F)cc1Cl | 11.5 | 37 nM | 
CCc1c(N2CCN(C(=O)c3ncnc(C)c3O)CC2)c(=O)n2nc(C3=CCOCC3)nc2n1CC(=O)Nc1cc(C(F)(F)F)c(C2CC2)s1 | 2.51 |  | 
[2H]C1([2H])CCC(c2nc3n4c(c(N5CCN(C(=O)c6ncnc(C)c6O)C(C)C5)c(=O)n3n2)C(C)CC4C(=O)Nc2scc(C(F)(F)F)c2C)=CCO1 (single isomer, unassigned) [306-P3] | 2.49 |  | 
CCc1c(N2CCN(C(=O)c3ncnc(C)c3O)CC2)c(=O)n2nc(C3=CCOCC3)nc2n1CC(=O)Nc1cc(C(F)(F)F)c(Cl)s1 | 3.7 |  | 
CCc1c(N2CCN(C(=O)c3ncnc(C)c3O)CC2)c(=O)n2nc(C3=CCN(CC#N)CC3)nc2n1CC(=O)Nc1ccc(C(F)(F)F)cc1Cl | 4.93 |  | 
CCc1c(N2CCN(C(=O)c3ncnc(OC)c3O)CC2)c(=O)n2nc(C3=CCOCCC3)nc2n1CC(=O)Nc1ccc(C(F)(F)F)cc1Cl | 1.67 |  | 
CCc1c(N2CCN(C(=O)c3ncnc(C)c3O)CC2)c(=O)n2nc(C3=CCN(c4nnc(C)o4)CC3)nc2n1CC(=O)Nc1ccc(C(F)(F)F)cc1Cl | 9.22 |  | 
CCc1c(N2CCN(C(=O)c3ncnc(C)c3O)CC2)c(=O)n2nc(C3=CCC4(CC3)CCN(C)C(=O)O4)nc2n1CC(=O)Nc1ccc(C(F)(F)F)cc1Cl (racemic) | 5.5 |  | 
CCc1c(N2CCN(C(=O)c3ncnc(C)c3O)CC2)c(=O)n2nc(C3=CCC(OC4CC4)CC3)nc2n1CC(=O)Nc1ccc(C(F)(F)F)cc1Cl (centres unmarked) | 6.49 |  | 

Compound | IC50 [1] [nM] | IC50 (SW48 (CRC, MSI)) | IC50 (SW620 (CRC, MSS)) [nM]
CCc1c(N2CCN(C(=O)c3ncnc(C)c3O)CC2)c(=O)n2nc(C#CC3CCOCC3)nc2n1CC(=O)Nc1ccc(C(F)(F)F)cc1Cl | 18.4 |  | 
CCc1c(N2CCN(C(=O)c3ncnc(C)c3O)CC2)c(=O)n2nc(C3=CCOCC3)nc2n1CC(=O)Nc1ccc(C(F)(F)F)c2ocnc12 | 5.44 |  | 
CCc1c(N2CCN(C(=O)c3ncnc(C)c3O)CC2)c(=O)n2nc(C3=CCC4(CC3)COC(=O)N(C)C4)nc2n1CC(=O)Nc1ccc(C(F)(F)F)cc1Cl (racemic) | 25.1 |  | 
CCc1c(N2CCN(C(=O)c3ncnc(C)c3O)CC2)c(=O)n2nc(C#CC3CC3)nc2n1CC(=O)Nc1ccc(C(F)(F)F)cc1Cl | 35 |  | 
[2H]C1([2H])CCC(c2nc3n(CC(=O)Nc4cc(C(F)(F)F)sc4Cl)c(CC)c(N4CCN(C(=O)c5ncnc(C)c5O)CC4)c(=O)n3n2)=CCO1 | 1.87 |  | 
CCc1c(N2CCN(C(=O)c3ncnc(C)c3O)CC2)c(=O)n2nc(C3=CCOCC3)nc2n1CC(=O)Nc1cnc(C(F)(F)F)s1 | 16.8 |  | 
CCc1c(N2CCN(C(=O)c3ncnc(C)c3O)CC2)c(=O)n2nc(C3=CCC4(CC3)COC4)nc2n1CC(=O)Nc1ccc(C(F)(F)F)cc1Cl | 4.84 |  | 
CCc1c(N2CCN(C(=O)c3ncnc(C)c3O)CC2)c(=O)n2nc(C3=CCOCC3)nc2n1CC(=O)Nc1csc(C(F)(F)F)c1 | 5.23 |  | 
CCc1c(N2CCN(C(=O)c3ncnc(C)c3O)CC2)c(=O)n2nc(C3=CCOCC3)nc2n1CC(=O)Nc1scc(C(F)(F)F)c1C1CC1 | 18.7 |  | 
CCc1c(N2CCN(C(=O)c3ncnc(C)c3O)CC2)c(=O)n2nc(C3=CCOCC3)nc2n1CC(=O)Nc1ccc(C(F)(F)F)c2c1CCO2 | 5.1 |  | 
CCc1c(N2CCN(C(=O)c3ncnc(C)c3O)CC2)c(=O)n2nc(C3=CC4(CCC4)OCC3)nc2n1CC(=O)Nc1ccc(C(F)(F)F)cc1Cl | 3.2 |  | 
CCc1c(N2CCN(C(=O)c3ncnc(C)c3O)CC2)c(=O)n2nc(C3=CCC(c4cnc(C)s4)CC3)nc2n1CC(=O)Nc1ccc(C(F)(F)F)cc1Cl (racemic) | 6.3 |  | 
CCc1c(N2CCN(C(=O)c3ncnc(C)c3O)CC2)c(=O)n2nc(C3=CCOCC3)nc2n1CC(=O)Nc1ccc(C(F)(F)F)c2c1COC2 | 7.87 |  | 
CCc1c(N2CCN(C(=O)c3ncnc(C)c3O)CC2)c(=O)n2nc(C#Cc3ccn(C)n3)nc2n1CC(=O)Nc1ccc(C(F)(F)F)cc1Cl | 31.2 |  | 
CCc1c(N2CCN(C(=O)c3ncnc(C)c3O)CC2)c(=O)n2nc(C3=CCC(S(C)(=O)=O)CC3)nc2n1CC(=O)Nc1ccc(C(F)(F)F)cc1Cl (centres unmarked) | 1.82 |  | 
CCc1c(N2CCN(C(=O)c3ncnc(C)c3O)CC2)c(=O)n2nc(C3=CCC(C(=O)NC)CC3)nc2n1CC(=O)Nc1ccc(C(F)(F)F)cc1Cl (centres unmarked) | 2.33 |  | 
CCc1c(N2CCN(C(=O)c3ncnc(C)c3O)CC2)c(=O)n2nc(C3=CCC(N4CCCOC4=O)CC3)nc2n1CC(=O)Nc1ccc(C(F)(F)F)cc1Cl (centres unmarked) | 5.57 |  | 
CCc1c(N2CCN(C(=O)c3ncnc(C)c3O)CC2)c(=O)n2nc(C3=CCC4(CCOCC4)CC3)nc2n1CC(=O)Nc1ccc(C(F)(F)F)cc1Cl | 5.38 |  | 
CCc1c(N2CCN(C(=O)c3cnn4cccc(O)c34)CC2)c(=O)n2nc(C3=CCOCC3)nc2n1CC(=O)Nc1ccc(C(F)(F)F)cc1Cl | 81.5 |  | 
CCc1c(N2CCN(C(=O)c3ncnc(C)c3O)CC2)c(=O)n2nc(C3=CCCOCCC3)nc2n1CC(=O)Nc1ccc(C(F)(F)F)cc1Cl | 5.56 |  | 
CCc1c(N2CCN(C(=O)c3ncnc(C)c3O)CC2)c(=O)n2nc(C3=CCC(OC(=O)N(C(C)C)C(C)C)CC3)nc2n1CC(=O)Nc1ccc(C(F)(F)F)cc1Cl (centres unmarked) | 6.9 |  | 
CCc1c(N2CCN(C(=O)c3ncnc(C)c3O)CC2)c(=O)n2nc(C3=CCOCC3)nc2n1CC(=O)Nc1cc(C(F)(F)F)cn1C | 7 |  | 
Cc1ncnc(C(=O)N2CCN(c3c4n(c5nc(C6=CCOCCC6)nn5c3=O)C(C(=O)Nc3scc(C(F)(F)F)c3C)CC4C)[C@H]3CC[C@@H]32)c1O (some centres unmarked) | 1.16 |  | 
CCc1c(N2CCC3(CC2)CN(C(=O)c2ncnc(C)c2O)C3)c(=O)n2nc(C3=CCOCC3)nc2n1CC(=O)Nc1ccc(C(F)(F)F)cc1Cl | 17.7 |  | 
CCc1c(N2CCN(C(=O)c3ncnc(C(C)C)c3O)CC2)c(=O)n2nc(C3=CCOCCC3)nc2n1CC(=O)Nc1ccc(C(F)(F)F)cc1Cl | 2.31 |  | 
CCc1c(N2CCN(C(=O)c3nn(C)c(=O)cc3O)CC2)c(=O)n2nc(C3=CCOCC3)nc2n1CC(=O)Nc1ccc(C(F)(F)F)cc1Cl | 4.49 |  | 
CCc1c(N2CCN(C(=O)c3ncnc(C)c3O)CC2)c(=O)n2nc(C3=CCOCCC3)nc2n1CC(=O)Nc1cc(C(F)(F)F)sc1C | 1.93 |  | 

“And” between values parts separate entries of the source, which are not always exact repeats. Identical values can stand only once.
